Laboratory results as given in ChEMBL document CHEMBL3994631, “Design, synthesis, structure-activity relationship and mechanism of action studies of a series of 4-chloro-1-phthalazinyl hydrazones as a potent agent against Leishmania braziliensis” (Eur J Med Chem, 2017).

Assay: Selectivity index, ratio of LC50 for mouse BMDM to EC50 for Leishmania braziliensis MHOM/CO/87/UA301 promastigote forms

| SMILES | Selectivity Index |
| --- | --- |
| O=[N+]([O-])c1ccc(C=NNc2nnc(Cl)c3ccccc23)o1 | 117 |
| O=[N+]([O-])c1ccc(C=NNc2nnc(Cl)c3ccccc23)s1 | < 3 |
| CCCCCCCCCCCCCCCCOP(=O)([O-])OCC[N+](C)(C)C [MILTEFOSINE] | 5 |
